## Cyclic peptide permeability, from CycPeptMPDB

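The data file gives no further conditions (lipid, pH, time, direction or concentration), and values from different papers need not be comparable. Other peptides of the study may be missing here. Peptides that the database sets to -10, its floor, are left out.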

PAMPA measures passive passage through an artificial lipid membrane. Values are log10 P with P in cm/s, so -5 is more permeable than -7.

PAMPA (log10 cm/s),SMILES
-5.00,CC(C)C[C@H]1C(=O)N[C@@H](Cc2ccccc2)C(=O)N[C@H](C)C(=O)N(C)[C@@H](CC(C)C)C(=O)N(C)[C@@H](CC(C)C)C(=O)N2CCC[C@@H]2C(=O)N1C
-5.58,CCCN1CC(=O)N(C)[C@@H](CC(C)C)C(=O)N(C)[C@@H](CC(C)C)C(=O)N2CCC[C@@H]2C(=O)N[C@@H](CC(C)C)C(=O)N[C@@H](Cc2ccccc2)C(=O)N2CCC[C@@H]2C1=O
-5.43,CC(C)C[C@@H]1C(=O)N[C@@H](Cc2ccccc2)C(=O)N2CCC[C@H]2C(=O)N(C)[C@H](C)C(=O)N(Cc2ccccc2)CC(=O)N(C)[C@@H](CC(C)C)C(=O)N2CCC[C@@H]2C(=O)N1C
-6.07,CC(C)C[C@@H]1NC(=O)[C@H]2CCCN2C(=O)CN(Cc2ccccc2)C(=O)[C@@H](CC(C)C)NC(=O)[C@H](C)NC(=O)[C@H]2CCCN2C(=O)[C@H](Cc2ccccc2)NC1=O
-5.48,CC(C)C[C@@H]1NC(=O)[C@H](C)N(C)C(=O)[C@@H]2CCCN2C(=O)[C@H](Cc2ccccc2)NC(=O)CN(Cc2ccccc2)C(=O)[C@@H]2CCCN2C(=O)[C@H](CC(C)C)N(C)C1=O
-6.19,CC(C)C[C@H]1NC(=O)[C@@H](C)NC(=O)[C@H](Cc2ccccc2)NC(=O)[C@H](CC(C)C)N(C)C(=O)[C@@H]2CCCN2C(=O)C[C@H](Cc2ccccc2)NC1=O
-5.38,CC(C)C[C@@H]1NC(=O)[C@H](CC(C)C)N(C)C(=O)[C@@H](C)NC(=O)[C@H]2CCCN2C(=O)[C@H](Cc2ccccc2)NC(=O)[C@@H](CC(C)C)N(C)C(=O)[C@@H]2CCCN2C1=O
-6.68,CC(C)C[C@@H]1NC(=O)[C@H]2CCCN2C(=O)[C@H](CC(C)C)NC(=O)[C@H](CC(C)C)NC(=O)[C@H](C)N(C)C(=O)[C@H](Cc2ccccc2)NC1=O
-5.86,CC(C)C[C@@H]1NC(=O)[C@H](C)N(C)C(=O)[C@H](Cc2ccccc2)NC(=O)[C@H](CC(C)C)N(C)C(=O)[C@@H]2CCCN2C(=O)[C@H](CC(C)C)NC1=O
-5.63,CC(C)C[C@@H]1NC(=O)[C@@H]2CCCN2C(=O)[C@H](CC(C)C)NC(=O)[C@@H](CC(C)C)N(C)C(=O)[C@H](C)N(C)C(=O)[C@H]2CCCN2C(=O)[C@H](Cc2ccccc2)NC1=O
-5.26,CC(C)C[C@@H]1NC(=O)C[C@H](Cc2ccccc2)NC(=O)[C@H](Cc2ccccc2)NC(=O)[C@H](CC(C)C)NC(=O)[C@H]2CCCN2C(=O)C[C@H](Cc2ccccc2)NC1=O
-5.42,CC(C)C[C@@H]1C(=O)N[C@@H](Cc2ccccc2)CC(=O)N2CCC[C@@H]2C(=O)N(C)[C@@H](CC(C)C)C(=O)N[C@@H](Cc2ccccc2)C(=O)N2CCC[C@@H]2C(=O)N[C@@H](Cc2ccccc2)CC(=O)N1C
-6.16,CC(C)C[C@@H]1NC(=O)[C@@H](CC(C)C)NC(=O)[C@@H](C)N(C)C(=O)[C@@H]2CCCN2C(=O)[C@H](Cc2ccccc2)NC(=O)CN(Cc2ccccc2)C(=O)[C@@H]2CCCN2C1=O
-5.98,CC(C)C[C@@H]1NC(=O)[C@@H]2CCCN2C(=O)CN(Cc2ccccc2)C(=O)[C@H](CC(C)C)N(C)C(=O)[C@@H](C)NC(=O)[C@H](Cc2ccccc2)NC1=O
-6.32,CC(C)C[C@H]1NC(=O)[C@@H]2CCCN2C(=O)CN(Cc2ccccc2)C(=O)[C@H](CC(C)C)N(C)C(=O)[C@@H](C)NC(=O)[C@@H]2CCCN2C(=O)[C@H](Cc2ccccc2)NC1=O
-5.82,CC(C)C[C@@H]1C(=O)N(Cc2ccccc2)CC(=O)N2CCC[C@@H]2C(=O)N(C)[C@@H](CC(C)C)C(=O)N[C@@H](Cc2ccccc2)C(=O)N[C@@H](Cc2ccccc2)CC(=O)N1C
-5.60,CC(C)C[C@@H]1C(=O)N[C@@H](Cc2ccccc2)C(=O)N2CCC[C@@H]2C(=O)N[C@@H](Cc2ccccc2)CC(=O)N[C@H](CC(C)C)C(=O)N[C@H](CC(C)C)C(=O)N2CCC[C@H]2C(=O)N1C
-5.10,CCCN1CC(=O)N(C)[C@H](CC(C)C)C(=O)N[C@H](CC(C)C)C(=O)N2CCC[C@@H]2C(=O)N(C)[C@H](CC(C)C)C(=O)N[C@@H](Cc2ccccc2)C1=O

Excerpt, the opening 3 entries:

| SMILES | PAMPA (log10 cm/s) |
|---|---|
| CC(C)C[C@H]1C(=O)N[C@@H](Cc2ccccc2)C(=O)N[C@H](C)C(=O)N(C)[C@@H](CC(C)C)C(=O)N(C)[C@@H](CC(C)C)C(=O)N2CCC[C@@H]2C(=O)N1C | -5.00 |
| CCCN1CC(=O)N(C)[C@@H](CC(C)C)C(=O)N(C)[C@@H](CC(C)C)C(=O)N2CCC[C@@H]2C(=O)N[C@@H](CC(C)C)C(=O)N[C@@H](Cc2ccccc2)C(=O)N2CCC[C@@H]2C1=O | -5.58 |
| CC(C)C[C@@H]1C(=O)N[C@@H](Cc2ccccc2)C(=O)N2CCC[C@H]2C(=O)N(C)[C@H](C)C(=O)N(Cc2ccccc2)CC(=O)N(C)[C@@H](CC(C)C)C(=O)N2CCC[C@@H]2C(=O)N1C | -5.43 |

Source: CycPeptMPDB (Li et al. 2023), which took these values from Townsend et al. 2020, doi:10.26434/chemrxiv.13335941.v1.